Tested on: hfRPE cells
Assay: BrdU incorporation assay, hfRPE proliferation
Format: cell-based, human
Conditions: data not shown
Description: BrdU incorporation was performed as described in Li, R. et al., 2007, Invest Ophthalmol Vis Sci, 48, 5722-5732, incorporated by reference in its entirety herein. IFNγ, TNFα, and IL-1β were obtained from Peprotech, Rocky Hill, N.J., and Universal Type I Interferon (cat: 11200-1) or human interferon beta la were from PBL biomedical laboratories (New Brunswick, N.J.). Cumulative effects were measured by adding VEGF165, EGF and bFGF (Peprotech), and PDGF-BB (R & D Systems) with IFNγ. Anti-human IFNγ R1 blocking antibody (R & D Systems, Minneapolis, Minn.), JAK inhibitor I, AG490, or JAK3 inhibitor II (EMD Biosciences, Gibbstown, N.J.) was added to the cells one hour prior to the addition of IFNγ. SFM was used as the negative control and SFM supplemented with 5% serum was used as positive control. After treatment for 48 hours, RPE cells were incubated with BrdU for 24 hours. The proliferation rate was evaluated using a Cell proliferation ELISA BrdU Kit (Roche, Ind.). Quadruplicate wells were used for each condition and the experiments were repeated at least two times using cell cultures from different donors. Cell viability was evaluated using a Live/Dead Viability/Cytotoxicity Kit (Invitrogen).

B1: IFNβ: type I IFN (protein, UniProt P01574 22-187, looked up)
Interferon beta: MSYNLLGFLQRSSNFQCQKLLWQLNGRLEYCLKDRMNFDIPEEIKQLQQFQKEDAALTIYEMLQNIFAIFRQDSSSTGWNETIVENLLANVYHQINHLKTVLEEKLEKEDFTRGKLMSSLHLKRYYGRILHYLKAKEYSHCAWTIVRVEILRNFYFINRLTGYLRN
  effect of type I IFN on hfRPE proliferation: no effect

Reference: patent US9486502B2, “Methods of administering interferon gamma to absorb fluid from the subretinal space” (The United States of America, as represented by the …, priority 2008, dated 2016)
